For one compound, Cmax results are on record in ChEMBL document CHEMBL4007395 (J Med Chem, 2017).

For orientation: Cmax means the peak of the concentration-time curve.

This series is described as follows: clinical. Particulars: human, in vivo, po, 10 mg.

With `CC(C)c1c(C(=O)Nc2ccccc2)c(-c2ccccc2)c(-c2ccc(F)cc2)n1CC[C@@H](O)C[C@@H](O)CC(=O)O` [ATORVASTATIN], the peak level (Cmax) was 2.81 ng/mL.
